What was measured:
human CT receptor = molecular target: T1, human CT receptor (Homo sapiens, UniProt P30988); experiment: hCT cAMP functional assay (HTRF); assay type: cell-based
T1 sequence (P30988 25-474): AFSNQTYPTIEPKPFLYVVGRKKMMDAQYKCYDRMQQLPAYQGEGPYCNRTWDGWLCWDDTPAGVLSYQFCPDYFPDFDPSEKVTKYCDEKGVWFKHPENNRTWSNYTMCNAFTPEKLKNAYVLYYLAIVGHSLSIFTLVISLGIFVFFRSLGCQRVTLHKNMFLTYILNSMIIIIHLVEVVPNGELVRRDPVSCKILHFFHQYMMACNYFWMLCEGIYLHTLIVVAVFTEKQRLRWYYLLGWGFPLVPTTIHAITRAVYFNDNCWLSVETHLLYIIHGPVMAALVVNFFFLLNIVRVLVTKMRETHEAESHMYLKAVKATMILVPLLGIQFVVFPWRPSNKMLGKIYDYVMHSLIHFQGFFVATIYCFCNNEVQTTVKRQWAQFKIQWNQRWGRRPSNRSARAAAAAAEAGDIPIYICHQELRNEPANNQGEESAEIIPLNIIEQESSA

[1] = in vivo; cited from earlier work

EC50 (human CT receptor): 2.32 ± 0.408 nM
Structure (SMILES): CC[C@H](C)[C@H](NC(=O)[C@@H]1CCCN1C(=O)CNC(=O)[C@H](Cc1ccccc1)NC(=O)[C@H](CC(N)=O)NC(=O)[C@H](CC(N)=O)NC(=O)[C@H](CO)NC(=O)[C@H](CO)NC(=O)[C@H](Cc1c[nH]cn1)NC(=O)[C@@H](NC(=O)[C@H](CC(C)C)NC(=O)[C@H](Cc1ccccc1)NC(=O)[C@H](CC(N)=O)NC(=O)[C@H](C)NC(=O)[C@H](CC(C)C)NC(=O)[C@H](CCCNC(=N)N)NC(=O)[C@H](CCC(N)=O)NC(=O)[C@@H](NC(=O)[C@H](C)NC(=O)[C@@H]1CSSC[C@H](NC(=O)[C@@H](N)CCCCN)C(=O)N[C@@H](CC(N)=O)C(=O)N[C@@H]([C@@H](C)O)C(=O)N[C@@H](C)C(=O)N[C@@H]([C@@H](C)O)C(=O)N1)[C@@H](C)O)C(C)C)C(=O)N[C@@H](CC(C)C)C(=O)N1CCC[C@H]1C(=O)N1CCC[C@H]1C(=O)N[C@H](C(=O)N[C@@H](CC(N)=O)C(=O)N[C@H](C(=O)NCC(=O)N[C@@H](CO)C(=O)N[C@@H](CC(N)=O)C(=O)N[C@H](C(=O)N[C@@H](Cc1ccc(O)cc1)C(N)=O)[C@@H](C)O)C(C)C)[C@@H](C)O [Pramlintide, reference compound]
half-life [1]: less than an hour
